{
  "source": "patent US9119780B2",
  "about": "“Triggerable compositions for two-stage, controlled release of proactive chemistry” (Kimberly-Clark Worldwide, Inc., priority 2013, dated 2015)",
  "key": {"[1]": {"details": "5 mg in 2 ml water"}, "[2]": {"details": "5 mg in 2 ml water containing 5 mg benzethenium chloride"}},
  "note": "Read-outs that look alike come from different tables or passages of the source.",
  "data": [
    {"substance": "trigonelline ester of vanillin", "values": [
      {"measurement": "vanillin smell (release by hydrolysis)", "setting": "[1]; after 8 hours under ambient condition", "value": "strong vanillin smell was detected"},
      {"measurement": "vanillin smell (release by hydrolysis)", "setting": "[1]; right after suspending by vortexing", "value": "No vanillin smell was detected"},
      {"measurement": "vanillin smell (release by hydrolysis)", "setting": "[2]; after 1 hour under ambient condition", "value": "strong vanillin smell was detected"},
      {"measurement": "vanillin smell (release by hydrolysis)", "setting": "[2]; immediately", "value": "No vanillin smell was immediately detected"}
    ]}
  ]
}
